Assay results taken from US9611221B2, “Histone demethylase inhibitors” (CELGENE QUANTICEL RESEARCH, INC., priority 2012, dated 2017).

Protein sequences, listed by entry. Tags and fused reporters are not part of them. Residues count along the entry.
UniProt P29375, 1-1090: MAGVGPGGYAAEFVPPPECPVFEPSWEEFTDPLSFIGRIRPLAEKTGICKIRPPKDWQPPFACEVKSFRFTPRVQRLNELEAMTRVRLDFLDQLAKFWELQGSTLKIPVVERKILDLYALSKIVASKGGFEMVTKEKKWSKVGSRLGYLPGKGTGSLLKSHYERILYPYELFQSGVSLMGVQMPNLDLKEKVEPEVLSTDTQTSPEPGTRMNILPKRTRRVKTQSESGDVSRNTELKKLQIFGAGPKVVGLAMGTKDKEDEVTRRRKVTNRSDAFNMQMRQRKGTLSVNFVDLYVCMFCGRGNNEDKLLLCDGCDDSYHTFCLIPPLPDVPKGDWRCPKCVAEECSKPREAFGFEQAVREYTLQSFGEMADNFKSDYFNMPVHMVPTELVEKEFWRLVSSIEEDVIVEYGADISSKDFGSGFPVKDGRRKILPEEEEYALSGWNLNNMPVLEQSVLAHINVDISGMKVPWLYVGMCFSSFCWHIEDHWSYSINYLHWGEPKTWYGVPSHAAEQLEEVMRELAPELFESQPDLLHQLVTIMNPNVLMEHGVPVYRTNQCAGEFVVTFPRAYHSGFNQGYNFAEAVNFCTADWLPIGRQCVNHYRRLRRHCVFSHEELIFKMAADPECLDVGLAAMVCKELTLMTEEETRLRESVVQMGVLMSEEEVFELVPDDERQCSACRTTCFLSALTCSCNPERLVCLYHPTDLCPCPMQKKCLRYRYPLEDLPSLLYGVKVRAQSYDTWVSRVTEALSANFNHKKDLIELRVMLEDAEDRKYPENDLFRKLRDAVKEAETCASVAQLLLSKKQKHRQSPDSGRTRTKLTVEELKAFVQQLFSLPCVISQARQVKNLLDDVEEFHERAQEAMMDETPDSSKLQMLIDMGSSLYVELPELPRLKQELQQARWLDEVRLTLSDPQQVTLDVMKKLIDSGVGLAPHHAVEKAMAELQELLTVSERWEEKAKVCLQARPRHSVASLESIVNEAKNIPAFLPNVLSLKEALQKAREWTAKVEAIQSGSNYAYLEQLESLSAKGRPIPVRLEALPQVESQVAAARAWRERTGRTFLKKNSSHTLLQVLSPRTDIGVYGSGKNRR
UniProt Q9UGL1, 2-751: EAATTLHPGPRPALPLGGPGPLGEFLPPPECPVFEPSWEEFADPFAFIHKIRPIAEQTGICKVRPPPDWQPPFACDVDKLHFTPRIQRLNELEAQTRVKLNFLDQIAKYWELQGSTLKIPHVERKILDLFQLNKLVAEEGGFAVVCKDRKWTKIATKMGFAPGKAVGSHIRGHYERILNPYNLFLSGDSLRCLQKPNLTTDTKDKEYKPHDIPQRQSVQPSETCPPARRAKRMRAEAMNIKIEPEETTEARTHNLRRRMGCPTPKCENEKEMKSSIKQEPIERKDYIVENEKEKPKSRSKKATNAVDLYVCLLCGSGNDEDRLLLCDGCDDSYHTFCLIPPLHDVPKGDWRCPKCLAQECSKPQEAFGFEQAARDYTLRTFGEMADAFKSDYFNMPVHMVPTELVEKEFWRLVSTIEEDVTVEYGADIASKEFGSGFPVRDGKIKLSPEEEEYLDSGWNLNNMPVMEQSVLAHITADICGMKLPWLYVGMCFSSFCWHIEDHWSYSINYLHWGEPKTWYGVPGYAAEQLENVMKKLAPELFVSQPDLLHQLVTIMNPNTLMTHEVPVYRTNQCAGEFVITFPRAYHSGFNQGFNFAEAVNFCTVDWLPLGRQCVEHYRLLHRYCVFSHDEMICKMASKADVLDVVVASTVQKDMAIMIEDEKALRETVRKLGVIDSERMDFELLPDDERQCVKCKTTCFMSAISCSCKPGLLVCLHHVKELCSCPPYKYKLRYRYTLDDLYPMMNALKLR

How the values were obtained:
Jarid1A = Jarid1A (Homo sapiens (Human), UniProt P29375); assay: Jarid1A in vitro enzyme inhibition assay (TR-FRET); format: biochemical; settings: 1 nM Jarid1A, 300 nM H3K4me3-biotin peptide, 2 μM alpha-ketoglutaric acid
Source text: This assay determines the ability of a test compound to inhibit Jarid1A, Jarid1B, and JMJD2C demethylase activity. Baculovirus expressed Jarid1A (GenBank Accession #NM_001042603, AA1-1090) was purchased from BPS Bioscience (Cat#50110). Baculovirus expressed Jarid1B (GenBank Accession #NM_006618, AA 2-751) was purchased from BPS Bioscience (Cat #50121) or custom made by MolecularThroughput. Baculovirus expressed JMJD2C (GenBank Accession #BC143571, AA 2-372) was purchased from BPS Bioscience (Cat#50105).
The enzymatic assay of Jarid1A activity is based upon Time Resolved-Fluorescence Resonance Energy Transfer (TR-FRET) detection. The ability of test compounds to inhibit the activity of Jarid1A was determined in 384-well plate format under the following reaction conditions: 1 nM Jarid1A, 300 nM H3K4me3-biotin labeled peptide (Anaspec cat #64357), 2 μM alpha-ketoglutaric acid in assay buffer of 50 mM HEPES, pH7.3, 0.005% Brij35, 0.5 mM TCEP, 0.2 mg/ml BSA, 50 μM sodium L-ascorbate, and 2 μM ammonium iron(II) sulfate. Reaction product was determined quantitatively by TR-FRET after the addition of detection reagent Phycolink Streptavidin-allophycocyanin (Prozyme) and Europium-anti-mono- or di-methylated histone H3 lysine 4 (H3K4me1-2) antibody (PerkinElmer) in the presence of 5 mM EDTA in LANCE detection buffer (PerkinElmer) at a final concentration of 25 nM and 1 nM, respectively. […]

Jarid1B = Jarid1B (Homo sapiens (Human), UniProt Q9UGL1); assay: Jarid1B in vitro enzyme inhibition assay (TR-FRET); format: biochemical; settings: 0.8 nM Jarid1B, 300 nM H3K4me3-biotin peptide, 2 μM alpha-ketoglutaric acid

Structure (SMILES): CC(C)Oc1ccc(CNc2cnccc2C(=O)O)cc1 [Example 11, 3-{[4-(propan-2-yloxy)benzyl]amino}pyridine-4-carboxylic acid]
- IC50 (Jarid1A): ≤ 100 nM
- IC50 (Jarid1B): ≤ 100 nM

Structure (SMILES): O=C(O)c1ccncc1NCc1ccc(CO)cc1 [Example 6]
- IC50 (Jarid1A): ≤ 100 nM
